Data: US4450165A, “Dihydropyridine compounds” (Yoshitomi Pharmaceutical Industries, Ltd., priority 1981, dated 1984)

Test system: vertebral blood flow (right vertebral artery)
Assay: Effect on vertebral blood flow
Format: in vivo, mongrel dogs
Details: anesthetized dogs
Description: Under the artificial ventilation, the right vertebral artery was perfused with the arterial blood from the left carotid artery through a short bypass. The perfused flow was measured by means of an electromagnetic flow-meter. The test compound was dissolved in an aqueous solution containing 0.1% dimethyl sulfoxide and 0.01% polyoxyethylene hydrogenated castor oil (cremophor EL®), and injected into the afferent tube. […] The duration was measured as the time for which the half maximum response remained.

COc1ccc(Cc2nccc3cc(OC)c(OC)cc23)cc1OC [Papaverine]
Duration (time for which the half maximum response remained): 0.4 min
